{"source": "paper PMC3420880", "key": {"[1]": {"target": "wild-type mouse thyroid stimulating hormone receptor, TSHR(W) (mouse) (UniProt P47750)"}, "[2]": {"target": "TSHR(W) tagged with eCFP or eYFP at the C-terminal (mouse) (UniProt P47750)"}}}
{"substance": "bovine thyroid stimulating hormone (TSH) (from UniProt P01217 25-120; P01223 21-132) (ligand)", "values": [{"measurement": "cAMP production of HEK 293 cells transfected with pcDNA3-TSHR(W) after 30 min with TSH; EC50 of TSH (untagged receptor)", "setting": "[1]", "value": 35, "unit": "µU/ml"}, {"measurement": "cAMP production of HEK 293 cells transfected with pcDNA-TSHR(W)-eCFP after 30 min with TSH; EC50 of TSH (tagged receptor)", "setting": "[2]", "value": 18, "unit": "µU/ml"}]}
